Protein sequences, listed by entry. Tags and fused reporters are not part of them. Lines headed by an entry give the natural chain unless they say otherwise; changes in a name come on top.
UniProt P10275: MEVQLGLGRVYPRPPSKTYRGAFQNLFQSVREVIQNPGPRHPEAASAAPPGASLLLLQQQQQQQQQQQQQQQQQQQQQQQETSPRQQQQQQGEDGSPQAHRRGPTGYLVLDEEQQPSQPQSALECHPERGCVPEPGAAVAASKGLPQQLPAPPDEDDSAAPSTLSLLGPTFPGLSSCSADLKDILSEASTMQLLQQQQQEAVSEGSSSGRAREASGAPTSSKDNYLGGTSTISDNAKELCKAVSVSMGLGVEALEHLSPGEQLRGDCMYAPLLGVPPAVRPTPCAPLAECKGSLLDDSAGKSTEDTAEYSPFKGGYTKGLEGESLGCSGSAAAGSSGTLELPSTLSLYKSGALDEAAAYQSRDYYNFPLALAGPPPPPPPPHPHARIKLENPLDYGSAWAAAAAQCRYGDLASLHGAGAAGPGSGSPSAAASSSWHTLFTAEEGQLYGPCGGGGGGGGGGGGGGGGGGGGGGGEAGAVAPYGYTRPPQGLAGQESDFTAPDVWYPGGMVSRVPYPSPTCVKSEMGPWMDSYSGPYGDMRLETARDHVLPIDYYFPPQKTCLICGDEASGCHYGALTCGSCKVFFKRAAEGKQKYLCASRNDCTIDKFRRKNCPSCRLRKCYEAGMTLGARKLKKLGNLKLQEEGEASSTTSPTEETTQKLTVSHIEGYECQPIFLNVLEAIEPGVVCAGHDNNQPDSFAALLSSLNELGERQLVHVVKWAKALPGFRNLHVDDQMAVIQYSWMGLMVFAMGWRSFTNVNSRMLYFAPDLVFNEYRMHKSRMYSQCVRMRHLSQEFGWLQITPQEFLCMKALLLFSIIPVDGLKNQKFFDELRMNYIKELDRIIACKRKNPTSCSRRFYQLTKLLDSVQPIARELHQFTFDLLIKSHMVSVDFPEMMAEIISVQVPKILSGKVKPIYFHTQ

According to paper PMC10592010:

Target: EGFP-tagged full-length AR wildtype (GFP-ARwt) (human) (UniProt P10275)
Experiment: live-cell single-particle tracking

Halo-tagged AR NTD wildtype with NLS (Halo-ARNTDwt-NLS) (from UniProt P10275-1 1-538) (domain or fragment)
residence time (RT): 6.4 s
